# Measured affinities in a library of Ab-14 light chain variants

From the AlphaSeq antibody data of Li et al. 2023 (doi:10.1038/s41467-023-39022-2), copy in the FLAb collection.

Target peptide (SARS-CoV-2 spike, HR2 region): PDVDLGDISGINAS

Parent: Ab-14, a human scFv built as VH, the linker GGGGSGGGGSGGGGS, VL. Only the CDRs of the light chain vary.
VH: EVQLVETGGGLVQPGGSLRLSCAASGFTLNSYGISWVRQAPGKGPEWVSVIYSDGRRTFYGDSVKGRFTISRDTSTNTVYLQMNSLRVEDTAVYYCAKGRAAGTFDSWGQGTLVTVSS
VL: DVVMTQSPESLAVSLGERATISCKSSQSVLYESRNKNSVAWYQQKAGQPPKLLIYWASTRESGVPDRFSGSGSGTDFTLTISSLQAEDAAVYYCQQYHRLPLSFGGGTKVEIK

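The parent was found by panning a naive human phage display library on the peptide. The variants were designed computationally from a first round of random CDR variants and then made and measured. Group labels follow the data file (Ctrl: baseline library sampled from a position-specific scoring matrix, with some repeated check sequences; GP: Gaussian process model; HC: hill climbing; Gen: genetic algorithm; Gibbs: Gibbs sampling; a sequence that several methods proposed may carry one label only). AlphaSeq pools MATa yeast showing the antibodies with MATalpha yeast showing the peptide. Pairs that bind mate more often; barcode pairs of the diploids are counted by sequencing. The ratio of observed to expected reads was calibrated, replicate by replicate, on BCL2-family standards whose Kd was known from biolayer interferometry. There are six technical replicates.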

Changes read parent residue, position, new residue, counted from the first residue of the VL shown.
Variants here have at most six changes.
Affinities are written as log10 Kd with Kd in nM; a lower number is a better binder.
The mean shown is taken over the replicates in which the pair was detected.
"ND" means that the variant was in the library but no mating with the target was seen in that replicate; the authors take this as a sign of poor binding, and no number exists.
In the paper, a design with two or fewer of six values counts as a poor binder.
As a blank, each scFv also met three strains without target: over all light chain designs, 4% of these pairings were detected, typically at 2.64 and seldom below 1.59.
A sequence measured in both rounds can read differently, since the two assays cover different ranges.
Of ten entries with the parent sequence, four were seen in most replicates (averages 0.34 to 2.37), three in one and three in none, so single entries are noisy.

With K36L S103R [Ctrl] the result was ND, ND, ND, ND, ND, ND.
With S26L V29Q L30E W56N S62D [GP_HC] the result was 1.10, 1.12, 1.08, 0.63, 0.55, 0.89 (mean 0.90).
With S25V Q27P V29E W56N [GP_Gen] the result was 0.92, 0.70, 0.72, 0.69, 0.94, 1.50 (mean 0.91).
With S25M T59L [Ctrl] the result was 0.19, 0.18, 0.26, 0.39, 0.37, 0.37 (mean 0.29).
With S25L N35V S38A W56N [GP_Gen] the result was -0.17, -0.24, -0.16, -0.32, -0.18, -0.05 (mean -0.19).
With S25Q W56M H98N [GP_HC] the result was -0.03, 0.20, -0.17, 0.33, 0.37, 0.17 (mean 0.14).
With V29E L30W Y31L E32S N35E [Ctrl] the result was 1.99, 1.45, 2.25, 1.03, 1.96, 1.61 (mean 1.71).
With S25L S26P V29N W56N T59Q [GP_Gen] the result was 0.30, 0.17, 0.45, -0.03, 0.43, 0.33 (mean 0.27).
With S25L S26P W56E S62E [GP_Gen] the result was -0.20, -0.29, -0.46, -0.57, -0.39, -0.28 (mean -0.36).
With Q27S Q96L [Ctrl] the result was ND, ND, ND, ND, 2.69, ND.
With S25I Y31M S33H W56D T59L [GP_HC] the result was 0.47, -0.19, 0.52, 0.35, 0.12, 0.36 (mean 0.27).
With K24H S25L Q27W S28G W56N [GP_HC] the result was -0.22, -0.28, -0.56, -0.45, -0.55, -0.21 (mean -0.38).
With R34N S38N W56A [Ctrl] the result was 0.26, -0.21, 0.20, -0.14, -0.05, 0.23 (mean 0.05).
With Q27G S33Y W56G T59H [Ctrl] the result was ND, ND, ND, ND, ND, ND.
With K24H Q27I L30E W56N T59S S62V [GP_HC] the result was 0.60, 0.61, 0.61, 0.38, 0.72, 0.73 (mean 0.61).
With S25L S26P V29W W56H [GP_Gen] the result was 0.51, 0.64, 0.28, 0.55, 0.53, 0.53 (mean 0.51).
With K24N Q27D S38N R99Y [Ctrl] the result was 3.03, 2.14, 2.09, 2.51, 2.34, 2.40 (mean 2.42).
With S25F S26D V29W W56H T59Q E61C [GP_Gibbs] the result was 0.51, 0.28, 0.22, 0.40, 0.37, 0.38 (mean 0.36).
With S25L S26R V29T K36P W56A [GP_HC] the result was 0.37, 0.26, 0.22, 0.14, 0.03, 0.27 (mean 0.21).
With S26E S28G V29A W56G [GP_HC] the result was 0.45, 0.12, 0.33, 0.07, 0.46, 0.63 (mean 0.34).
With S25F V29D L30P S33D W56N E61S [GP_Gibbs] the result was -0.12, -0.08, -0.19, -0.34, -0.31, -0.09 (mean -0.19).
With S26D S28G V29Q W56G [GP_HC] the result was -0.02, -0.12, -0.23, -0.24, -0.19, -0.13 (mean -0.16).
With S26L K36G W56H S62D [GP_HC] the result was 1.30, 0.62, 0.46, 1.13, 0.47, 0.85 (mean 0.81).
With K36H V39I A40S [Ctrl] the result was ND, ND, ND, ND, ND, 2.61.
With S28F Y31M S38D Q95L [Ctrl] the result was ND, ND, ND, ND, ND, ND.
With S25L S26Y W56Q [GP_Gen] the result was -0.01, -0.02, -0.29, -0.13, -0.30, 0.02 (mean -0.12).
With S25V V29F S38A W56D [GP_HC] the result was -0.16, -0.53, -0.47, -0.60, -0.50, -0.38 (mean -0.44).
With L30E S58R [Ctrl] the result was ND, 0.97, ND, ND, ND, ND.
With S25L V29T W56N [GP_Gen] the result was 0.23, 0.10, 0.08, 0.09, 0.02, 0.26 (mean 0.13).
With K24H Q27P L30G W56N [GP_HC] the result was ND, ND, ND, ND, ND, ND.